According to patent publication US8513229B2, “4-Azetidinyl-1-phenyl-cyclohexane antagonists of CCR2” (Janssen Pharmaceutica NV, priority 2009, dated 2013):

Target: T1, CCR2 (Homo sapiens, UniProt P41597)
T1 construct: host or cells: THP-1 human monocytic cells
T1 sequence (P41597 1-360 isoform P41597-2): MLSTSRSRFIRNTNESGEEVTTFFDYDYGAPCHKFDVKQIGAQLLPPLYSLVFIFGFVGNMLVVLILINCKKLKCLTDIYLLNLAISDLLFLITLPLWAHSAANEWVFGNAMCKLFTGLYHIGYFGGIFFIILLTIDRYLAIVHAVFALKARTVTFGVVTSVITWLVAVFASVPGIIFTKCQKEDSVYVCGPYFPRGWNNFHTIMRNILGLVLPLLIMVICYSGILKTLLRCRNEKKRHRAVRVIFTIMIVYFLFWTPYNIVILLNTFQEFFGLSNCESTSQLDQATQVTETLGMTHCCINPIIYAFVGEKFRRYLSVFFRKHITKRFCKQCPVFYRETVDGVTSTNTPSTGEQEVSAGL
Test: MCP-1 Receptor Binding Assay in THP-1 Cells
Procedure: MCP-1 Receptor Binding Assay in THP-1 Cells
Human monocytic cell line THP-1 cells were obtained from American Type Culture Collection (Manassas, Va., USA). […] The cell density was maintained […].
1 μM cold MCP-1 was used for nonspecific binding.

Compound	IC50 [nM]
CN(C)c1cccc(C2(O)CCC(N3CC(NC(=O)CNC(=O)c4cccc(C(F)(F)F)c4)C3)CC2)c1 (single isomer, unassigned) [Example 39a, N-({1-[4-(3-Dimethylamino-phenyl)-4-hydroxy-cyclohexyl]-azetidin-3-ylcarbamoyl}-methyl)-3-trifluoromethyl-benzamide]	15
COC(=O)c1ccc(C2CCC(N3CC(NC(=O)CNC(=O)c4cccc(C(F)(F)F)c4)C3)CC2)cc1 (centres unmarked) [Example 9, 4-(4-{3-[2-(3-Trifluoromethyl-benzoylamino)-acetylamino]-azetidin-1-yl}-cyclohexyl)-benzoic acid methyl ester]	80
